Reference: ChEMBL document CHEMBL1125479, “Methoxytetrahydropyrans. A new series of selective and orally potent 5-lipoxygenase inhibitors” (J Med Chem, 1992)

Target: T1, Polyunsaturated fatty acid 5-lipoxygenase (Homo sapiens, UniProt P09917)
T1 sequence (P09917 whole entry): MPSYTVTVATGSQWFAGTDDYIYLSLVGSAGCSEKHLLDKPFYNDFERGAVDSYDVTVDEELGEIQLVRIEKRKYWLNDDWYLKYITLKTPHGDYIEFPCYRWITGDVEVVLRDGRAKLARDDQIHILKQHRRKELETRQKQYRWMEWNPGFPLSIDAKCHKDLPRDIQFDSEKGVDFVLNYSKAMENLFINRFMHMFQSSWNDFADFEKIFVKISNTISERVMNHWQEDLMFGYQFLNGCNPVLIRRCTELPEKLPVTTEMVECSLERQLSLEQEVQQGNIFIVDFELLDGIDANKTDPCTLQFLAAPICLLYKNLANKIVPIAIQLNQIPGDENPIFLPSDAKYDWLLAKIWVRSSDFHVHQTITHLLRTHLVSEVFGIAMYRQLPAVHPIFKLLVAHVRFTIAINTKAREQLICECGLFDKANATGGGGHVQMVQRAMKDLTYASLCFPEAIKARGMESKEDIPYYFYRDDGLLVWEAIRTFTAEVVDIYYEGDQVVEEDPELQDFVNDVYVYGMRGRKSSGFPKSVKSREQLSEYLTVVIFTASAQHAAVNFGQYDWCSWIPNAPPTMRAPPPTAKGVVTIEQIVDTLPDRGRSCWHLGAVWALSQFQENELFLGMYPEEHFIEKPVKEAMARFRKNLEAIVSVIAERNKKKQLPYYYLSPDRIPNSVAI
Experiment: In vitro inhibition of leukotriene B4 synthesis in human whole blood by inhibiting 5-lipoxygenase
Type: tissue-based
Procedure, shortened: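 Heparinized human whole blood preincubated with compound, then stimulated with calcium ionophore A23187; LTB4 (5-LPO product) and TxB2 (cyclooxygenase product) generation measured.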

IC50 [µM] | SMILES
40 | COC(C)(c1nccs1)c1cc(OCc2ccc3ccccc3c2)ccc1C (configuration not stated)
0.3 | COC1(c2cc(F)cc(OCc3ccc4nccnc4c3)c2)CCOCC1
